Source: PubChem BioAssay
Sampled rows, rich in hits. Any-hit rate of the full collection: about 0.72%.
RXFP1 ag = agonists of human relaxin receptor RXFP1 | HEK293T-RXFP1 cAMP TR-FRET, 30 min; response scale: percent of porcine relaxin response, buffer zero | Potency, µM (titrated, usually from 57.5 µM), for inactives: at the highest dose activation, most hits filed as activators | 0.3% of 370,000 active | AID 2676; further: potency means the concentration at half of the fitted maximal effect; on the % scale 0 is the no-effect control and ±100 the full control effect; nearly all actives have a fitted effect of over 60% in size
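HEK293T cells stably expressing RXFP1 were pretreated with the PDE4 inhibitor Ro 20174, exposed to compounds for 30 min at 37C, lysed, and cAMP was read by TR-FRET. Data normalized to buffer (basal) and 29 nM porcine relaxin (100%).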
RXFP1 antag = blocks the human relaxin receptor RXFP1 | activity change, negative = inhibition, % at 57.5 µM | HEK293-RXFP1, relaxin-stimulated cAMP HTRF, 30 min; stronger effect = lower value | 0.59% of 350,000 active | Q9HBX9;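 active means activity change of -60% or lower, but not beyond a set lower limit; inconclusive means change between -60% and -40%, or beyond the set limit; inactive means change above -40%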; further: on the % scale 0 is the no-effect control and ±100 the full control effect
miR-21 FLuc = miR-21 reporter, rising signal | HeLa miR-21 FLuc reporter, luciferase, 48 h | Potency, µM (highest dose often 38.3 µM), for inactives: at the top dose reporter change, positive = more light | 340,000 tested, under 10 active | AID 2288; active = well fitted rising curve with a large enough effect; inconclusive = small, poorly fitted or top-dose-only effect; inactive = no such curve, though single readings can be large or run the other way;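 further: % of control where 0% means no effect; miR-21 action dims this reporter so a rising signal means less miR-21 action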
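Compounds were titrated across several concentrations (up to approximately 40 uM) and incubated 48 hours with HeLa miR-21-FLuc reporter cells (miR-21 target sequence downstream of FLuc, endogenous miR-21). Readout was firefly luciferase luminescence after lytic detection reagent.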
ERG Ets-DNA blk = ERG Ets/DNA interaction inhibition; P11308; fluorescence polarization, His-ERG Ets domain / labelled DNA; Potency, µM (highest dose often 76.9 µM), for the others: at the top dose FP activity, negative = inhibition, usual class: inhibitors; 0.028% of 370,000 active; AID 624246; active means well fitted inhibition curve with a large enough effect in the polarisation, with a control signal flat; inconclusive means small, poorly fitted or top-dose-only effect, or effect the other way, or a change in a side signal; inactive means no such curve, though single readings can be large or run the other way; the % refers to the polarisation;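 further: polarization taken with two DNA probes labelled with fluorescein and Texas red; potency means the concentration at half of the fitted maximal effect; % of control where 0% means no effect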
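His-tagged ERG Ets domain (1 uM in the protein solution; 300mM KCl, 50mM Tris-HCl, 1mM EDTA, 1mM DTT, pH 7.5) received compound, then a probe mix of 5 nM fluorescein-DNA and 100nM Texas-615-DNA. Fluorescence polarization was read for both dyes.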
ASM inhibitor = human S-ASM enzyme inhibition; P17405; placental ASM, HMU-PC fluorogenic substrate, 60 min; Potency, µM (series often up to 57.5 µM), inactives show top-dose activity change, negative = inhibition, usual class: inhibitors; 0.006% of 340,000 active; AID 504937; further: potency means the concentration at half of the fitted maximal effect
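Fluorogenic HMU-PC substrate (9 uM final) is turned over by placental ASM in 60 min at 37 C after a 10 min compound preincubation. Reaction ended by alkaline stop (pH 10), with fluorescence read at 386/447 nm.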
Mito fusion act = inhibitors of mitochondrial division or activators of mitochondrial fusion; S. cerevisiae fusion-defective mutant growth rescue, CellTiterGlo 48 h; Potency, µM (doses to about 46.1 µM), without a hit: top-dose growth rescue (activation), most hits filed as activators; 0.23% of 320,000 active; AID 485298; further: potency means the concentration at half of the fitted maximal effect; % of control where 0% means no effect; nearly all actives have a fitted effect of over 45% in size
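Read-out: ATP-based luminescence (CellTiterGlo, 10 min ambient) reporting growth of fusion-defective ts yeast after 48 hours at 37C on glycerol/ethanol YPEG medium in the presence of compound.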
* marks the source's active call; other numbers are inactive results. Unless noted, the call rests on the fitted dose curve; in most records, active means well fitted curve in the direction sought with a large enough effect; inconclusive means small, poorly fitted or top-dose-only effect, or another doubt; inactive means no such curve, though single readings can be large; an effect the other way counts as inactive or inconclusive.

Results for O=C1CCN(C(=O)CNC(=O)Cc2ccccc2)CC1 ?
RXFP1 ag: 1%; RXFP1 antag: -7; miR-21 FLuc: -1%; ERG Ets-DNA blk: -4%; ASM inhibitor: 4%; Mito fusion act: -1%

Results for Cc1cc2ccccc2n1CCNC(=O)Cc1ccccc1 ?
RXFP1 ag: 2%; RXFP1 antag: -9; miR-21 FLuc: -9%; ERG Ets-DNA blk: 35µM*; ASM inhibitor: 3%; Mito fusion act: -2%

What do the screens show for `c1ccc(-c2cc(-c3ccccc3)[n+](-c3ccccc3)c(-c3ccccc3)c2)cc1`?
RXFP1 ag: 7%; RXFP1 antag: inconclusive; miR-21 FLuc: inconclusive; ERG Ets-DNA blk: 3%; ASM inhibitor: -1%; Mito fusion act: 0%

What do the screens show for `CN(C)c1ccc(-[n+]2c(-c3ccccc3)cc(-c3ccccc3)cc2-c2ccccc2)cc1`?
RXFP1 ag: 8%; RXFP1 antag: -105*; miR-21 FLuc: inconclusive; ERG Ets-DNA blk: 7%; ASM inhibitor: -17%; Mito fusion act: 0%

Results for Sc1ccccc1Cl ?
RXFP1 antag: -6

How did Nc1ccc(CCN2CCN(c3cccc(C(F)(F)F)c3)CC2)cc1 do in these assays?
ERG Ets-DNA blk: 1%; ASM inhibitor: -1%; Mito fusion act: 9.2µM*

How did O=[N+]([O-])c1ccc(NCc2ccccc2)c2nonc12 do in these assays?
RXFP1 ag: 6%; RXFP1 antag: 6; miR-21 FLuc: 0%; ERG Ets-DNA blk: 6.3µM*; ASM inhibitor: -1%; Mito fusion act: -7%

Results for O=[N+]([O-])c1ccc(N2CCCCCC2)c2nonc12 ?
RXFP1 ag: 3%; RXFP1 antag: -32; miR-21 FLuc: -39%; ERG Ets-DNA blk: inconclusive; ASM inhibitor: -11%; Mito fusion act: -5%

How did CCON=C(CC)C1=C(O)CC(c2c(C)cc(C)cc2C)CC1=O (centres undefined) do in these assays?
RXFP1 antag: -34

What do the screens show for `COc1ccc(-n2c(O)c(/C=C3\C=Nc4ccc(Br)cc43)c(=O)[nH]c2=O)c(OC)c1`?
RXFP1 ag: -3%; RXFP1 antag: -71*; miR-21 FLuc: 10%; ERG Ets-DNA blk: 11%; ASM inhibitor: -29%; Mito fusion act: -4%

What do the screens show for `N[C@@H](Cn1ccc(=O)c(O)c1)C(=O)O`?
Mito fusion act: -13%

How did Cc1ccc2oc(-c3ccc(Cl)cc3)c(O)c(=O)c2c1 do in these assays?
RXFP1 ag: 25%; RXFP1 antag: -5; miR-21 FLuc: -40%; ERG Ets-DNA blk: 4%

How did O=C(CNC(=O)c1ccc(Br)cc1)Nc1ccc(Br)cc1C(=O)c1ccccc1 do in these assays?
RXFP1 ag: 0%; RXFP1 antag: 0; miR-21 FLuc: -8%; ERG Ets-DNA blk: 2%; ASM inhibitor: -12%; Mito fusion act: 18µM*

What do the screens show for `O=C(Nc1ccc(Br)cc1C(=O)c1ccccc1)c1ccccc1`?
RXFP1 ag: 1%; RXFP1 antag: -36; miR-21 FLuc: -9%; ERG Ets-DNA blk: -1%

What do the screens show for `Clc1ccc(C(Cn2ccnc2)OCc2csc3c(Cl)cccc23)c(Cl)c1` (centres undefined)?
RXFP1 ag: 1%; ERG Ets-DNA blk: -6%; ASM inhibitor: -18%; Mito fusion act: 3.5µM*

How did CCOc1ccc(C(=O)Nc2cccc(C(=O)OCc3cc(=O)n4nc(C5CC5)sc4n3)c2)cc1 do in these assays?
RXFP1 ag: 8%; RXFP1 antag: -4; miR-21 FLuc: -34%; ERG Ets-DNA blk: 3%

What do the screens show for `COC(=O)C1=C(c2ccccc2OCc2ccccc2)C[C@@H]2CC[C@H]1N2C(=O)NCCc1ccc(F)cc1`?
RXFP1 ag: 1%; ERG Ets-DNA blk: -1%; ASM inhibitor: -5%; Mito fusion act: 8.9µM*

Of the compounds above, these contain a nitro group on carbon.
How did O=[N+]([O-])c1ccc(NCc2ccccc2)c2nonc12 do in these assays?
RXFP1 ag: 6%; RXFP1 antag: 6; miR-21 FLuc: 0%; ERG Ets-DNA blk: 6.3µM*; ASM inhibitor: -1%; Mito fusion act: -7%

Results for O=[N+]([O-])c1ccc(N2CCCCCC2)c2nonc12 ?
RXFP1 ag: 3%; RXFP1 antag: -32; miR-21 FLuc: -39%; ERG Ets-DNA blk: inconclusive; ASM inhibitor: -11%; Mito fusion act: -5%
